Experimental findings from ChEMBL document CHEMBL2401730, “The macrocyclic peptide natural product CJ-15,208 is orally active and prevents reinstatement of extinguished cocaine-seeking behavior” (J Nat Prod, 2013) are described below.

The data set deals with Mus musculus. The data set can be described thus: Neurotoxicity in C57BL/6J mouse assessed as sedative effect at 10 mg/kg, ip after 60 mins by rotarod test. The settings on record: in vivo, 1 h. (The rotarod test checks motor coordination on a turning rod.)

`CN(C(=O)Cc1ccc(Cl)c(Cl)c1)C1CCCCC1N1CCCC1` (stereo unspecified): the Activity result is “Toxic”.
